The values that follow are results of earlier work, collected in paper PMC8198792, “Prediction of Anticancer Peptides with High Efficacy and Low Toxicity by Hybrid Model Based on 3D Structure of Peptides” (International Journal of Molecular Sciences, 2021).

One data set has as its system cancer cell lines. On the set-up: method as in 6 sources, ref CancerPPD [45] and SATPdb ||| ref CancerPPD/SATPdb ||| ref CancerPPD, SATPdb, Swissprot (PDB) ||| ref CancerPPD/SATPdb/Swissprot(PDB) ||| ref CancerPPD / SATPdb ||| ... The note with it: ACPs dataset D1, label 1 = ACP, 0 = non-ACP (non-anticancer AMPs from SATPdb); ref CancerPPD/SATPdb; cited from earlier work.
For EGGGPQWAVGHFM [satpdb11884], the Activity is recorded as 0.
As for FFPMLAGVAARVVPKVICLITKKC [satpdb13071], the Activity is 0.
FLPIASLLGKYL [satpdb11889]: the Activity is on record as 0.
In the case of FLPLVRVAAKLIPSVVCAISKRC [satpdb12257], the Activity is 0.
As to “GILTDTLKGAAKNVAGVLLDKLKCKITGGC [satpdb12452]”, the Activity was 0.
As to “GLFSILKGVGKIALKGLAKNMGKMGLDLVSCKISKEC [satpdb12283]”, the Activity is on record as 0.
Consider GNGVVLTLTHECNLATWTKKLKCC [satpdb12592], for which the Activity was 0.
In the case of GSKKPVPIIYCNRRKCQRM [satpdb11407], the Activity is recorded as 0.
As for “HPHVCTSYYCSKFCGTAGCTRYGCRNLHRGKLCFCLHCSR [satpdb13256]”, the Activity is 0.
Consider “KYYGNGLSCSKKGCTVNWGQAFSCGVNRVATAGHHKC [satpdb11923]”, for which the Activity is reported as 0.
Turning to “LSKKLICYCRIRGCKRRERVFGTCRNLFLTFVFCCS [satpdb11890]”, the Activity was 0.
As to RPWAGNGSVHRYTVLSPRLKTQ [satpdb12613], the Activity is given as 0.
As to “RRCICTTRTCRFPYRRLGTCIFQNRVYTFCC [satpdb12581]”, the Activity is listed as 0.
In the case of RVCYAIPLPIC [satpdb11870], the Activity is recorded as 0.
“SAIACGESCVYIPCFIPGCSCRNRVCYLN [satpdb12767]”: the Activity was 0.
Turning to SAVGRHGRRFGLRKHRKH [satpdb12440], the Activity is recorded as 0.
On to “TKYYGNGVYCNSKKCWVDWGQASGCIGQTVVGGWLGGAIPGKC [satpdb13182]”, for which the Activity is reported as 0.
Consider “TNWKKIGKCYAGTLGSAVLGFGAMGPVGYWAGAGVGYASFC [satpdb12382]”, for which the Activity is reported as 0.
Take “TTHSGKYYGNGVYCTKNKCTVDWAKATTCIAGMSIGGFLGGAIPGKC [satpdb13316]”: the Activity was 0.

Staying with this data set, now noted: ACPs dataset D1; 1 = ACP (positive), 0 = non-ACP (negative); label taken from databases; ref CancerPPD [45] and SATPdb; cited from earlier work.
In the case of ASWSACSVSCGGGARQRTR [satpdb17296], the Activity is on record as 1.
As to EKSSRPEFYKVILGAHEEYIRG [satpdb16174], the Activity was 1.
As for FCNINNVCNFASRNDYSYW [satpdb17832], the Activity is on record as 1.
Turning to FLPVLAGLTPSIVPKLVCLLTKKC [satpdb10416], the Activity is listed as 0.
Regarding FSTKTRNWFSEHFKKVKEKLKDTFA [satpdb11367], the Activity is 0.
On to FVQWFSKFLGRIL [compound 4363], for which the Activity is recorded as 1.
As for “GIPCGESCVFIPCITAAIGCSCKSKVCYRN [compound 4383]”, the Activity is listed as 1.
Take “GLFSVVTGVLKAVGKNVAKNVGGSLLEQLKCKISGGC [satpdb11247]”: the Activity is listed as 0.
“GLLQTIKEKLESLESLAKGIVSGIQA [compound 4392]”: the Activity is given as 1.
In the case of HGVSGHGQHGVHG [compound 4419], the Activity was 1.
With HNRTPENFPCKNL [satpdb14648], the Activity is listed as 1.
For “IATQCRIRGGFCRVGSCRFPHIAIGKCATFISCCGRAY [satpdb10589]”, the Activity was 0.
Take IMRIKQGQIGQMTI [satpdb17970]: the Activity is 1.
Take KAAKKAAKAAKKAAKAAKKAA [compound 3288]: the Activity is 1.
In the case of “KTCMTKKEGWGRCLIDTTCAHSCRKYGYMGGKCQGITRRCYCLLNC [satpdb10109]”, the Activity is on record as 0.
Consider RQVFQVAYIIIKA [satpdb27572], for which the Activity is 1.
As for RRPAAAGKRRREKQRPSDKPRR [satpdb16692], the Activity is given as 1.
Regarding RRPKGRGKRAAAKQRPSDKPRR [satpdb22628], the Activity is recorded as 1.
Consider “RTCESQSHKFKGPCFSDSNCATVCRTENFPRGQCNQHHVERKCYCERSC [satpdb11053]”, for which the Activity is listed as 0.
Turning to “RTCRCRLGRCSRRESYSGSCNINGRIYSLCCR [satpdb11346]”, the Activity is on record as 0.
On to “RWKVFKKIEKVGRNIRDGVIKAAPAIEVLGQAKAL [satpdb11143]”, for which the Activity is listed as 0.
Consider SCTTCVCTCSCCTT [satpdb10987], for which the Activity is given as 0.
SEWSDCSVTCGKGMRTRQR [satpdb28027]: the Activity was 1.
As for “SIGAKILGGVKTFFKGALKELASTYLQ [compound 1652]”, the Activity is reported as 1.
As to “SIRDKIKTIAIDLAKSAGTGVLKTLICKLDKSC [satpdb11261]”, the Activity is 0.
In the case of SKRKSRPVSVKTFEDIPLEEP [satpdb21003], the Activity was 1.
Consider SPNITVTLKKFPL [satpdb16044], for which the Activity was 1.
SPSTHPNEGLEENYCRNPDN [satpdb18195]: the Activity is on record as 1.
Consider SPWDICSVTCGGGVQKRSR [satpdb14271], for which the Activity was 1.
Turning to SPWSPCSTSCGLGVSTRI [satpdb16807], the Activity was 1.
In the case of SPWSQCSVRCGRGQRSRQVR [satpdb28887], the Activity is reported as 1.
With SPWSSASVTAGDGVDITRIR [satpdb10113], the Activity is listed as 1.
With SQWSPCSRTCGGGVSFRER [satpdb27624], the Activity was 1.
Consider SVSGGGHHHHHHGGG [satpdb10012], for which the Activity is listed as 1.
On to TAGIKLTVPIEKFPVTTQTFWG [compound 3368], for which the Activity is listed as 1.
On to TGALVEEEDPF [satpdb12029], for which the Activity is listed as 1.
VGALAVVVWLYLWLW [satpdb10590]: the Activity is 0.

The same data set, now with this note: ACPs dataset D2 (supplement ACPs(seguence).xlsx, sheet D2); dataset label 1/0 (ACP / non-ACP); entries identified by Swissprot(PDB ID); ref CancerPPD/SATPdb/Swissprot(PDB); cited from earlier work.
For the substance “AHMDCTEFNPLCRCNKMLGDLICAVIGDAKEEHRNMCALCCEHPGGFEYSNGPCE [1IW4 NMR - A 1-55]”, the Activity is 0.
On to “DECANAAAQCSITLCNLYCGPLIEICELTVMQNCEPPFS [1ERY NMR - A 1-39]”, for which the Activity was 0.
In the case of “MAKGKRTFQPNNRRRARVHGFRLRMRTRAGRAIVANRRSKGRRALTA”, the Activity is 0.
Turning to “MKKYVCTVCGYEYDPAEGDPDNGVKPGTSFDDLPADWVCPVCGAPKSEFEAA [1RB9 X-ray 0.92 A 1-52]”, the Activity is reported as 0.
Consider “MVEPLLCGIVLGLVPVTIAGLFVTAYLQYLRGDLATY [1Q90 X-ray 3.10,G,1-37]”, for which the Activity is 0.
For the substance “SEKPQQELEECQNVCRMKRWSTEMVHRCEKKCEEKFERQQR [2LQX NMR - A 1-41]”, the Activity was 0.
Consider “TIVIDHEECIGCESCVELCPEVFAMIDGEEKAMVTAPDSTAECAQDAIDACPVEAISKE [1DWL NMR - A 1-59]”, for which the Activity is given as 0.
Take “TQGNTCGGETCSAAQVCLKGKCVCNEVHCRIRCKYGLKKDENGCEYPCSCAKASQ [1BX7 X-ray 1.20 A 1-55]”: the Activity is on record as 0.

Still in this data set, the particulars now being: ACPs dataset D3 (sheet "D3"); label 1 = ACP, 0 = non-ACP; ref CancerPPD/SATPdb; cited from earlier work.
For the substance FKRLEKLFSKIWNWK [satpdb14858], the Activity is 0.
Take ILPILGNLLNSLL [satpdb13527]: the Activity is recorded as 0.
With INWSSIFESVKNLV [satpdb12662], the Activity is on record as 0.
As to LKKLLKKLLKW [satpdb14863], the Activity is reported as 0.
On to RWCFRVCYRGICYRKCR [satpdb12755], for which the Activity was 0.
As for VKKFPWWWPFLKK [satpdb14862], the Activity is listed as 0.

The data set is the same for the next values; noted with them: ACPs dataset D3 (supplement sheet "D3"); 1 = ACP, 0 = non-ACP; ref CancerPPD [45] and SATPdb; cited from earlier work.
In the case of GKWMTLLKHILK [compound 3660], the Activity was 1.
“KKKFPWWWPFKKKKKKFPWWWPFKKKK [compound 1911]”: the Activity is reported as 1.
Turning to KLlLKlLkkLLKlLKKK [compound 1441], the Activity is reported as 1.
KWKLFKKIGIGAFLHSAKKF [compound 1203]: the Activity is given as 1.
On to KWKLFKKILKFLHLAKKF [compound 1131], for which the Activity is listed as 1.
On to “KWKSFLkTFkSLKkTVLHTLLkAISS [compound 3765]”, for which the Activity is 1.
For the substance “KWKSFlKTFKSlKKTVlHTllKAISS [compound 3763]”, the Activity is 1.
In the case of RRRRRRRRGGC-Pem [compound 3343], the Activity was 1.
In the case of “TRSSRAGLQWPVGRVHRLLRKGGC [compound 2219]”, the Activity is on record as 1.
With VAKALAKALLKALKAL [compound 1916], the Activity is 1.
As for VNSKKISGKSIKVSK [satpdb10664], the Activity is listed as 0.

The data set is the same for the next values; noted with them: ACPs dataset sheet D2; 1 = ACP (CancerPPD/SATPdb ID), 0 = non-ACP (Swissprot/PDB ID); ref CancerPPD, SATPdb, Swissprot (PDB); cited from earlier work.
“FLSLIPHAIN AVSALANHG [2JQ1 NMR - A 1-19]”: the Activity is listed as 0.
With “GLFGVLAKVA AHVVPAIAEH F [2MMJ NMR - A 1-21]”, the Activity is 0.
On to “MAPRGFSCLL LLTSEIDLPV KRRA [1Y32 NMR - A 1-24]”, for which the Activity is 0.
As to “MEEKPKGALAVILVLTLTILVFWLGVYAVFFARG [1XME X-ray 2.30 ,C，1-34]”, the Activity is given as 0.
For “MLGNMNVFMAVLGIILFSGFLAAYFSHKWDD [5OQT X-ray 2.86 C 1-31]”, the Activity is given as 0.
As to “MNPNCARCGK IVYPTEKVNC LDKFWHKACF [1ZFO NMR - A 1-30]”, the Activity is 0.
Take “RSCPRIWMEC TRDSDCMAKC ICVAGHCG [1MCT X-ray 1.60 I，1-28]”: the Activity is on record as 0.
In the case of “RVCPRILMEC KKDSDCLAEC VCLEHGYCG [1LU0 X-ray 1.03 A/B 1-29]”, the Activity is reported as 0.
Regarding SLLSLIRKLIT [2N9A NMR - A 1-11], the Activity is listed as 0.
For SSGWVCTLTI ECGTVICAC [1AJ1-A(1-19)], the Activity is on record as 0.
